Target: T1, human RXFP1 (Homo sapiens, UniProt Q9HBX9)
T1 sequence (Q9HBX9 1-757): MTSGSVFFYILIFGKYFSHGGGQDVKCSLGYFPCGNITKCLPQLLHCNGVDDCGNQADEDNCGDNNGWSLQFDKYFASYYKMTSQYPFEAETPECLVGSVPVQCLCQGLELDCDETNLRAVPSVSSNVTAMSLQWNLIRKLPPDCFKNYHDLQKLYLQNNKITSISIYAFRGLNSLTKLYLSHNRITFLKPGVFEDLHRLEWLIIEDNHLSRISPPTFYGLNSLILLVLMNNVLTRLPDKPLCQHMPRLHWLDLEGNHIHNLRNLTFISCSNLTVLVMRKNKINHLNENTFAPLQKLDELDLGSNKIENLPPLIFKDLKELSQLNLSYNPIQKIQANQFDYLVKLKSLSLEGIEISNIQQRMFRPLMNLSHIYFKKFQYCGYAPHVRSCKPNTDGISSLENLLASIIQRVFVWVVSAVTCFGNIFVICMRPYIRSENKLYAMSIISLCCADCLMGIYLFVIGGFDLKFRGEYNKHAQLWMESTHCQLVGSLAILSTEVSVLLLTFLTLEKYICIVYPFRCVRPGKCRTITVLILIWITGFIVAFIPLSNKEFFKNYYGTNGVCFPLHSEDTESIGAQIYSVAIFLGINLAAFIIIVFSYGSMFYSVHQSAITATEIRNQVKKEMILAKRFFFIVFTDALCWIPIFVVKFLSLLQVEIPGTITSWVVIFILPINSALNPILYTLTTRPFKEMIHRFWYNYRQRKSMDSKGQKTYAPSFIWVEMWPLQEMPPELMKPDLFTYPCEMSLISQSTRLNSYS
Test: RXFP1 Hu cAMP (Test A)
Type: cell-based
Set-up: expressed in transfected cells; host or cells: Jump-In T-REx CHO-K1 cells (ThermoFisher), induced with 10 ng/ml doxycycline for 24 h

`COc1cc(F)c(-c2ccc(/C=C/C(=O)O)nc2)cc1C(=O)N[C@@H]1[C@H]2CC[C@H](C2)[C@@H]1C(=O)Nc1cccc(S(=O)(=O)C(F)(F)F)c1` [Example 260, (E)-3-(5-(2-Fluoro-4-methoxy-5-(((1S,2R,3S,4R)-3-((3-((trifluoromethyl)sulfonyl)phenyl)carbamoyl)bicyclo[2.2.1]heptan-2-yl)carbamoyl)phenyl)pyridin-2-yl)acrylic acid] was tested. Which EC50 did it give?
Its EC50 is 280 nM.

“(1R,4s)-4-(2-Fluoro-5-(((3S*,4R*)-4-((4-fluoro-3-(pentafluoro-λ6-sulfaneyl)phenyl)carbamoyl)tetrahydrofuran-3-yl)carbamoyl)-4-methoxyphenoxy)-1-methylcyclohexane-1-carboxylic acid [Example 565]” was tested. Which EC50 did it give?
Its EC50 is 23 nM.

Which EC50 does the source give for `COc1cc(F)c(-c2nc(C(=O)O)cs2)cc1C(=O)N[C@H]1[C@@H](C(=O)Nc2cccc(S(=O)(=O)C(F)(F)F)c2)[C@@H]2C=C[C@H]1C2` (racemic) [Example 286] here?
Its EC50 is 13000 nM.

How did the EC50 turn out when `CC1(CNC(=O)[C@H]2[C@@H]3CC[C@@H](C3)[C@H]2NC(=O)c2cc(O[C@H]3CC[C@@](C)(C(=O)O)CC3)c(F)cc2C#N)CCC1` [Example 377] was run?
The EC50 was 13000 nM.

`COc1cc(F)c(OC[C@H]2C[C@H](C(=O)O)C2)cc1C(=O)N[C@@H]1[C@@H]2CC[C@@H](C2)[C@@H]1C(=O)Nc1cccc(S(=O)(=O)C(F)(F)F)c1` [Example 472, (1R,3r)-3-((2-Fluoro-4-methoxy-5-(((1R,2R,3S,4S)-3-((3-((trifluoromethyl)sulfonyl)phenyl)carbamoyl)bicyclo[2.2.1]heptan-2-yl)carbamoyl)phenoxy)methyl)cyclobutane-1-carboxylic acid] was tested. Which EC50 did it give?
Its EC50 is 280 nM.

Which EC50 does the source give for `COc1cc(C#N)c(O[C@H]2CC[C@@](C)(C(=O)O)CC2)cc1C(=O)N[C@@H]1[C@H]2CC[C@H](C2)[C@@H]1C(=O)NCC1(CO)CCC1` [Example 75] here?
The EC50 was 1100 nM.

With “(1R,4s)-4-(2-fluoro-4-methoxy-5-(((1S*,2S*,5S*)-2-methoxy-5-((3-((trifluoromethyl)sulfonyl)phenyl)carbamoyl)cyclopentyl)carbamoyl)phenoxy)-1-methylcyclohexane-1-carboxylic acid [Example 527]” as the compound, how does the EC50 read?
The EC50 was 80 nM.

Which EC50 does the source give for “(1R,4s)-4-(2-Cyano-4-methoxy-5-(((1R*,2S*,3R*,4S*)-3-(((1-methylcyclobutyl)methyl)carbamoyl)bicyclo[2.2.2]oct-5-en-2-yl)carbamoyl)phenoxy)-1-methylcyclohexane-1-carboxylic acid [Example 541]” here?
The EC50 was 18000 nM.

How did the EC50 turn out when “(1R,4s)-4-(2-Fluoro-5-(((1S*,2R*)-2-((4-fluoro-3-(pentafluoro-λ6-sulfaneyl)phenyl)carbamoyl)cyclobutyl)carbamoyl)-4-methoxyphenoxy)-1-methylcyclohexane-1-carboxylic acid [Example 571]” was run?
Its EC50 is 2.5 nM.

`COc1cc(F)c(O[C@H]2CC[C@@](C)(C(=O)O)CC2)cc1C(=O)N[C@@H]1[C@H]2CC[C@H](C2)[C@@H]1C(=O)NCCC(F)(F)F` [Example 596] was tested. Which EC50 did it give?
Its EC50 is 1100 nM.

`COc1cc(C#N)c(O[C@H]2CC[C@@](C)(C(=O)O)CC2)cc1C(=O)N[C@@H]1[C@H]2CC[C@H](C2)[C@@H]1C(=O)N[C@H](C)C1CCCCC1` [Example 120] was tested. Which EC50 did it give?
The EC50 was 45 nM.

With “(1R,4s)-4-(2-fluoro-5-(((1S*,2S*,3R*,4R*)-3-((4-fluoro-3-(pentafluoro-λ6-sulfaneyl)phenyl)carbamoyl)bicyclo[2.2.1]heptan-2-yl)carbamoyl)-4-methoxyphenoxy)-1-methylcyclohexane-1-carboxylic acid [Example 521]” as the compound, how does the EC50 read?
The EC50 was 710 nM.

For `COc1cc(F)c(-c2ccc(C(=O)O)c(C)c2)cc1C(=O)N[C@@H]1[C@H]2CC[C@H](C2)[C@@H]1C(=O)Nc1cccc(S(=O)(=O)C(F)(F)F)c1` [Example 246], which EC50 is on record?
The EC50 was 290 nM.

How did the EC50 turn out when “(1R,4s)-4-(2-Fluoro-4-methoxy-5-(((1S*,2S*,3R*,4R*)-3-(((1-methylcyclobutyl)methyl)carbamoyl)-7-oxabicyclo[2.2.1]heptan-2-yl)carbamoyl)phenoxy)-1-methylcyclohexane-1-carboxylic acid [Example 531]” was run?
Its EC50 is greater than 40000 nM.

For `COc1cc(C#N)c(O[C@H]2CC[C@@](C)(C(=O)O)CC2)cc1C(=O)N[C@@H]1[C@H]2CC[C@H](C2)[C@@H]1C(=O)NCCCC1CC1` [Example 132], which EC50 is on record?
The EC50 was 280 nM.

How did the EC50 turn out when `COc1cc(F)c(O[C@H]2CC[C@@H](C(=O)O)CC2)cc1C(=O)N[C@@H]1[C@H]2CC[C@H](C2)[C@@H]1C(=O)Nc1ccc(F)c(OC(F)(F)F)c1` [Example 21] was run?
The EC50 was 23 nM.

How did the EC50 turn out when “(1R,4s)-4-(2-Fluoro-4-methoxy-5-(((3S*,4R*)-4-(neopentylcarbamoyl)tetrahydrofuran-3-yl)carbamoyl)phenoxy)-1-(hydroxymethyl)cyclohexane-1-carboxylic acid [Example 579]” was run?
The EC50 was 13000 nM.

For “(1R,4s)-4-(2-Cyano-4-methoxy-5-(((1S*,2S*,3R*,4R*)-3-(((1-methylcyclobutyl)methyl)carbamoyl)-7-oxabicyclo[2.2.1]heptan-2-yl)carbamoyl)phenoxy)-1-methylcyclohexane-1-carboxylic acid [Example 535]”, which EC50 is on record?
The EC50 was greater than 40000 nM.

For `COc1cc(F)c(O[C@H]2CC[C@@](C)(C(=O)O)CC2)cc1C(=O)NC1C(C(=O)Nc2cccc(S(=O)(=O)C(F)(F)F)c2)CC2OCOC21` (single isomer, unassigned) [Example 512, (1R,4s)-4-(2-Fluoro-4-methoxy-5-(((3aR*,4S*,5S*,6aS*)-5-((3-((trifluoromethyl)sulfonyl)phenyl)carbamoyl)tetrahydro-4H-cyclopenta[d][1,3]dioxol-4-yl)carbamoyl)phenoxy)-1-methylcyclohexane-1-carboxylic acid], which EC50 is on record?
The EC50 was 23 nM.

“(1R,4s)-4-(2-fluoro-4-methoxy-5-(((3S*,4S*)-3-((3-((trifluoromethyl)sulfonyl)phenyl)carbamoyl)tetrahydro-2H-pyran-4-yl)carbamoyl)phenoxy)-1-methylcyclohexane-1-carboxylic acid [Example 519]” was tested. Which EC50 did it give?
The EC50 was greater than 17000 nM.

“(1R,4s)-4-(2-Fluoro-4-methoxy-5-(((1S*,2S*,3R*,4R*)-3-((3-((trifluoromethyl)sulfonyl)phenyl)carbamoyl)bicyclo[2.2.1]heptan-2-yl)carbamoyl)phenoxy)-1-methylcyclohexane-1-carboxylic acid [Example 587]” was tested. Which EC50 did it give?
Its EC50 is 2200 nM.

With `COc1cc(F)c(-c2ccc(C(=O)O)c(F)c2)cc1C(=O)N[C@H]1[C@@H](C(=O)Nc2cccc(S(=O)(=O)C(F)(F)F)c2)[C@@H]2C=C[C@H]1C2` (racemic) [Example 232] as the compound, how does the EC50 read?
Its EC50 is 1100 nM.

For `COC[C@]1(C(=O)O)CC[C@@H](Oc2cc(C(=O)N[C@@H]3[C@H]4CC[C@H](C4)[C@@H]3C(=O)NCC(C)(C)C)c(OC)cc2F)CC1` [Example 481], which EC50 is on record?
The EC50 was 280 nM.

Which EC50 does the source give for `COc1cc(C#N)c(O[C@H]2CC[C@@](C)(C(=O)O)CC2)cc1C(=O)N[C@@H]1[C@H]2CC[C@H](C2)[C@@H]1C(=O)NCCCF` [Example 135] here?
Its EC50 is 1100 nM.

“(1R,4s)-4-(2-Fluoro-5-(((1S*,2S*,5S*)-2-hydroxy-5-((3-((trifluoromethyl)sulfonyl)phenyl)carbamoyl)cyclopentyl)carbamoyl)-4-methoxyphenoxy)-1-methylcyclohexane-1-carboxylic acid [Example 529]” was tested. Which EC50 did it give?
Its EC50 is 500 nM.

“(1R,4s)-4-(5-(((1S*,2R*,3S*,5S*)-2,3-Dihydroxy-5-((3-((trifluoromethyl)sulfonyl)phenyl)carbamoyl)cyclopentyl)carbamoyl)-2-fluoro-4-methoxyphenoxy)-1-methylcyclohexane-1-carboxylic acid [Example 563]” was tested. Which EC50 did it give?
The EC50 was greater than 40000 nM.

— patent US11667602B2, “Compounds and their use” (AstraZeneca AB, priority 2020, dated 2023)
